Vif-A3G inh: Vif-A3G binding inhibition. Q9HC16. HeLa A3G-eYFP + Vif (tagged APOBEC3G with the HIV-1 protein that degrades it), YFP fluorescence, overnight. Potency, µM (highest dose often 46.1 µM), for the others: top-dose activity, negative = active, actives largely listed as inhibitors. 410,000 tested, 0.076% active. AID 602310; note: % is set by controls: 0 for no effect and ±100 for the full control effect; nearly all actives have a fitted effect of over 60% in size
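Read-out is eYFP fluorescence (Ex 488/Em 500-530) from Vif-expressing HeLa A3G-eYFP cells; more signal means A3G escaped Vif-mediated degradation. Cells plated overnight, compound pinned in, incubated overnight at 37 deg C.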
Vif-APOBEC3F blk: blocks the Vif interaction with APOBEC3F; Potency, µM (doses to about 46.1 µM), for inactives: top-dose activity, negative = active; HeLa A3F-eYFP + Vif (tagged APOBEC3F with the HIV-1 protein that degrades it), YFP fluorescence increase; 390,000 tested, 0.2% active; note: % of control where 0% means no effect; nearly all actives have a fitted effect of over 65% in size
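HeLa cells stably expressing Vif plus C-terminally eYFP-tagged A3F were seeded, incubated overnight at 37 deg C, dosed with compound, incubated overnight again at 37 deg C. Yellow fluorescence (Ex 488/Em 500-530) reported blocked Vif-mediated A3F-eYFP degradation.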
Rango dissoc inh: prevents RanGTP from dissociating the Rango-importin beta complex. Potency, µM (doses to about 46.1 µM), for the others: top-dose activity change, negative = inhibition. O95149+P62826. 340,000 tested, 0.071% active. Biochemical FRET Rango-importin beta, RanGTP-induced dissociation; calls by dose curve; note: % of control where 0% means no effect; nearly all actives have a fitted effect of over 45% in size
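Compounds preincubate 5 min with complex of recombinant Rango and importin beta in PBS with 1 mM DTT. Ran (0.6 uM) loaded with 2 mM GTP plus 0.2 uM RCC1 starts dissociation; FRET is recorded 45 min later.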
Rango-impB inh: Rango-importin beta binding inhibition; Rango CFP/YFP FRET sensor + importin beta, 45 min; Potency, µM (doses to about 92.2 µM), for the others: top-dose inhibition of complex formation; 340,000 tested, 0.031% active; calls by dose curve;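 note: 0% = DMSO wells and 100% = buffer wells lacking importin beta; nearly all actives have a fitted effect of over 15% in size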
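Inhibition scored from the CFP 486 nm/YFP 530 nm FRET ratio 45 min after adding 0.125 microM importin beta to 50 nM Rango biosensor preincubated 5 min with compound (room temperature, PBS with DTT, Tween-20, BSA). No-importin wells as positive control.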
Epigenetic reg: epigenetic control regulation, reporter derepression; murine LDR cells, GFP reporter derepression, 30 h; Potency, µM (series often up to 53.9 µM), for the others: top-dose GFP activation, usual class: activators; 280,000 tested, 0.2% active; AID 1865; note: % of control where 0% means no effect; nearly all actives have a fitted effect of over 60% in size
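Derepression of a silenced CMV-GFP reporter in murine LDR cells is scored by enumerating GFP-positive cells with a laser-scanning microplate cytometer after 30 hours of treatment at 37 C.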
Active calls of the source: *; ? = inconclusive; / = no result given. A selection: hits, their analogues and other compounds. The true share with any hit is near 0.42%. Unless noted, calls come from the whole dose curve; as a rule, active = well fitted curve in the direction sought with a large enough effect; inconclusive = small, poorly fitted or top-dose-only effect, or another doubt; inactive = no such curve, though single readings can be large; an effect the other way counts as inactive or inconclusive. Potency is the fitted concentration of half-maximal effect.

SMILES	Vif-A3G inh	Vif-APOBEC3F blk	Rango dissoc inh	Rango-impB inh	Epigenetic reg
Oc1nc(Nc2cccc(Cl)c2)sc1/C=C1\C=Nc2ccccc21	-15%	-9%	?	?	0%
Oc1cccc(Nc2nc(O)c(/C=C3\C=Nc4ccccc43)s2)c1	4.5µM*	11µM*	?	?	1%
COc1ccccc1N1CCN(S(=O)(=O)c2c(C)sc3ncn(CC(=O)N(C)c4ccc(Cl)cc4)c(=O)c23)CC1	-2%	-1%	/	/	2%
CCOC(=O)c1[nH]c2ccccc2c1NC(=O)c1cc(OC)cc(OC)c1	-3%	4%	/	/	-1%
N#C/C(=C\c1ccccc1)C(=O)Nc1ccccn1	-5%	-4%	?	?	/
C=CCOc1ccc(/C=C(\C#N)C(=O)Nc2ccccn2)cc1	0%	1%	26µM*	?	/
O=C(CCC(=O)Nc1ccc(F)cc1)N/N=C/c1ccc(O)cc1O	-5%	-14%	?	?	1%
Oc1ccc(C=NNC(=S)Nc2ccc(F)cc2)c(O)c1	?	25µM*	?	?	/
c1ccc2c(-c3nc4ccccc4[nH]3)cccc2c1	6.3µM*	0%	/	/	/
CN1C(=O)N(C)c2ccc(C=O)c3cccc1c23	0%	11µM*	?	?	-1%
CN1C(=O)N(C)c2ccc(Br)c3cccc1c23	-2%	0%	5%	0%	/
COc1ccc(CNC(=O)CSc2ncc3c(n2)-c2cc(Cl)ccc2N(Cc2ccccc2)S3(=O)=O)cc1	1%	8%	/	/	3%

Six compounds already listed, ordered by molar mass, smallest number first:
SMILES	Vif-A3G inh	Vif-APOBEC3F blk	Rango dissoc inh	Rango-impB inh	Epigenetic reg
c1ccc2c(-c3nc4ccccc4[nH]3)cccc2c1	6.3µM*	0%	/	/	/
N#C/C(=C\c1ccccc1)C(=O)Nc1ccccn1	-5%	-4%	?	?	/
C=CCOc1ccc(/C=C(\C#N)C(=O)Nc2ccccn2)cc1	0%	1%	26µM*	?	/
Oc1cccc(Nc2nc(O)c(/C=C3\C=Nc4ccccc43)s2)c1	4.5µM*	11µM*	?	?	1%
O=C(CCC(=O)Nc1ccc(F)cc1)N/N=C/c1ccc(O)cc1O	-5%	-14%	?	?	1%
COc1ccc(CNC(=O)CSc2ncc3c(n2)-c2cc(Cl)ccc2N(Cc2ccccc2)S3(=O)=O)cc1	1%	8%	/	/	3%

Additional entries follow.
SMILES	Vif-A3G inh	Vif-APOBEC3F blk	Rango dissoc inh	Rango-impB inh	Epigenetic reg
COc1ccc(CNC(=O)CSc2ncc3c(n2)-c2cc(Cl)ccc2N(Cc2ccccc2)S3(=O)=O)cc1OC	-2%	0%	/	/	22µM*
O=C(Nc1cccc(OCc2cc(=O)n3c4c(sc3n2)CCCC4)c1)c1ccc(F)cc1	-2%	-20%	/	/	25µM*
COc1ccc(C(=O)Nc2cccc(OCc3cc(=O)n4c5c(sc4n3)CCCC5)c2)cc1OC	-1%	1%	/	/	-2%
COc1cc(OC)c(/C=C/c2cc3ccccc3c[n+]2C)c(OC)c1	-5%	/	/	/	/
COCC(=O)N1c2nc(C(C)C)nn2C2(CCCCC2)[C@@H]2CCCC[C@@H]21	7%	1%	/	/	-2%
O=C(N/N=C/C=C\c1ccco1)c1cccs1	0%	?	-4%	?	-1%
O=C(N/N=C/C=C/c1ccco1)c1ccncc1	3%	11µM*	6%	0%	3%
N#Cc1cc(C#N)c(SCC(=O)N2CC(=O)Nc3ccccc32)nc1N	-29%	?	?	?	/
Cc1ccc2nc(SCC(=O)Nc3ccccc3N3CCOCC3)c(C#N)cc2c1	?	-3%	14%	4%	-1%
CCc1ccc2nc(SCC(=O)N3CC(=O)Nc4ccccc43)c(C#N)cc2c1	?	?	0%	4%	18µM*
CCc1ccc2nc(SCC(=O)Nc3ccccc3N3CCOCC3)c(C#N)cc2c1	?	10µM*	1%	3%	?
CCS(=O)(=O)N1CCc2cc(C(=O)Nc3ccc(OC)c(Cl)c3)ccc21	-3%	-7%	/	/	-4%
CCCOc1ccc(C2=NC(c3ccc(F)cc3)=Nc3ccc(OC)cc3N2)cc1	/	/	/	/	-3%
Cc1ccc(NS(=O)(=O)c2cc([N+](=O)[O-])ccc2N/N=C/c2sc(N3CCOCC3)nc2-c2ccccc2)c(C)c1	?	-395%	4%	7%	32µM*
Cc1ccc(C(=O)O)cc1Nc1nc2ccccc2n2nnnc12	-23%	11µM*	/	/	0%
COc1ccccc1CNC(=O)c1cccc(Nc2nc3ccccc3n3nnnc23)c1	-6%	-6%	/	/	?
COc1ccccc1CNC(=O)c1ccc(Nc2nc3ccccc3n3nnnc23)cc1	-28%	22µM*	/	/	?
CC(NC(=O)c1ccc(Nc2nc3ccccc3n3nnnc23)cc1)c1ccccc1 (stereo not given)	?	7.1µM*	/	/	?
CC(C)(C)n1ncc2c(=O)n(Cc3ccc(Cl)c(SC(F)(F)F)c3)cnc21	-1%	/	/	/	/
CN(Cc1ccccc1)/[N+]([O-])=N/Oc1ccc([N+](=O)[O-])cc1[N+](=O)[O-]	-22%	/	/	/	/
O=C(N/N=C/c1cccnc1)c1cccc(N2CCCC2=O)c1	4%	6%	10%	10%	0%
CCN(CC)c1ccc(/C=N/NC(=O)c2cccc(N3CCCC3=O)c2)cc1	-1%	-8%	10µM*	?	-1%
COc1ccc2[nH]c3c4c(ccc3c2c1)C(=O)C=CC4=O	?	11%	4.6µM*	?	2%
COc1ccc2[nH]c(-c3ccc(F)cc3F)cc(=O)c2c1	/	/	/	/	0%
Cc1c(Cn2cnc3c(cnn3C(C)(C)C)c2=O)cccc1C(F)(F)F	-4%	/	/	/	/
COCCNC(=O)c1sc2ncccc2c1-n1c(C)ccc1C	-2%	-4%	/	/	-1%
CCSc1nnc(-c2sc3nnc(-c4ccccc4)c(-c4ccccc4)c3c2N)o1	3.2µM*	13µM*	?	?	?
CCSc1nnc(-c2ccncc2)o1	-1%	0%	4%	-5%	1%
Cc1cc(C)c2nc(C)cc(N/N=C/c3ccc(O)cc3)c2c1	?	17%	15µM*	?	/
C[C@@H]1[C@H](c2ccccc2)OCCS(=O)(=O)N1Cc1ccccc1F	0%	/	/	/	/
Cc1ccc(NC(=O)C(=O)NCC(c2cccnc2)N2CCc3ccccc3C2)cc1 (stereo not given)	5%	-11%	/	/	22µM*
CC(C)c1ccc(Cn2cnc3c(cnn3C(C)(C)C)c2=O)cc1	1%	/	/	/	/
CCCCn1c(NC(=O)c2ccco2)c(S(=O)(=O)c2ccc(C)cc2)c2nc3ccccc3nc21	?	25µM*	?	?	2%
COC(=O)C1=CN(Cc2ccccc2)C=C(C(=O)OC)C1c1ccc(O)c(OC)c1	-1%	-1%	2%	?	/
COC(=O)C1=CN(Cc2ccccc2)C=C(C(=O)OC)C1c1ccc(OC)c(OC)c1	0%	4%	13µM*	?	/
CN1CCS/C1=C/C=C1\SC(=S)N(CC(=O)O)C1=O	8%	?	?	58µM*	12%
CCCCN1C(=O)/C(=C/C=C2\N(C)c3ccccc3C2(C)C)SC1=S	/	/	/	/	2.5µM*
CCCCN1C(=O)/C(=C/C=C2\SCCN2C)SC1=S	?	?	-6%	52µM*	18µM*
COc1cc2cc(CNc3ccc(C)cc3)c(=O)n(CC(=O)Nc3ccc(F)cc3F)c2cc1OC	-1%	?	/	/	7%
Cc1ccc(NC(=O)CN2C(=O)CSc3ccc(S(=O)(=O)N(C)C)cc32)c(C)c1	-2%	11%	/	/	0%
COc1cccc(-c2ccc3c(N)c(C(=O)c4ccc(Br)cc4)sc3n2)c1	?	7.9µM*	/	/	?
COc1ccc(C(=O)c2sc3nc(-c4ccccc4)ccc3c2N)cc1OC	?	-16%	?	?	?
